# Apparent affinities of Ab-14 variants for a coronavirus HR2 peptide

Target: peptide PDVDLGDISGINAS, taken from heptad repeat 2 (HR2) of SARS-CoV-2 spike.

Parent: Ab-14, a human scFv built as VH, three GGGGS repeats, VL. Only the CDRs of the light chain vary.
VH: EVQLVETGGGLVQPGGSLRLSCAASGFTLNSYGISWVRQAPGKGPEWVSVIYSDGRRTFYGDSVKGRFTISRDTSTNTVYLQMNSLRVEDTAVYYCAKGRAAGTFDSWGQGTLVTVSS
VL: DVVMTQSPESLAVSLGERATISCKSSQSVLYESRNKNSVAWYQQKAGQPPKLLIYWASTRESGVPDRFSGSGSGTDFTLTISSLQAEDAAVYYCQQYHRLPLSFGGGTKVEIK

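The variants were designed computationally from a first round of random CDR variants and then made and measured. Several design methods are mixed in this list. In AlphaSeq, yeast of one mating type display the scFv and yeast of the other type display the target. After mating in shaken culture at 30 °C for 16 h, diploids were selected and their barcode pairs sequenced. Scores were corrected for input abundance and mapped to Kd with protein pairs of known affinity run in the same pool. There are six technical replicates.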

Changes read parent residue, position, new residue, counted from the first residue of the VL shown. This list holds designs with at most six substitutions. Scale: log10 of Kd in nM, estimated from mating counts; low values are strong binders. "ND" marks a missing value. The strain was present, yet no cells mated with the target were sequenced in that replicate, which points to weak or no binding.

- S26Q+V29W+L30P+W56N+T59Q = -0.21, -0.18, -0.36, -0.44, -0.36, -0.11
- S26I+Y31D+N35T+K36N+Q95S = ND, ND, ND, ND, 3.22, ND
- S26G+S28G+V29G+S38H+W56G = 1.23, 1.28, 0.21, 1.08, 0.83, 1.21
- S25L+S26P+V29Q+W56Q = 0.04, -0.19, -0.29, -0.01, -0.02, 0.09
- S25L+S26P+L30W+W56N+S62Q = -0.38, -0.24, -0.37, -0.35, -0.09, 0.01
- L30E+R34T = 1.34, 1.17, 2.82, 1.95, 1.80, 1.78
- S25L+S26Q+N35M+W56N+E61M = 1.07, 1.62, 0.78, 0.41, 1.11, 1.32
- S25F+S26E+W56N+T59Q = 0.22, -0.21, 0.04, -0.01, -0.06, -0.02
- S25L+W56N+S103Y = -0.20, -0.34, -0.35, -0.39, -0.53, -0.16
- S25V+S26Q+S38A+W56E = -0.12, -0.13, 0.12, -0.16, -0.29, -0.31
- S28V+V29Y+W56G+T59L = 0.36, 0.43, 0.21, 0.39, 0.39, 0.32
- V29Q+H98I = ND, ND, ND, 0.68, ND, ND
- K24H+L30P+W56D = 0.45, 0.32, 0.25, 0.44, 0.39, 0.19
- S25L+S26M+Q27M+V29T = 0.58, 1.44, 1.01, 0.79, 1.28, 1.18
- Q27E+R34E+K36L = 1.72, 1.00, 1.93, 1.14, 2.97, 1.77
- K24H+Q27P+K36G+W56N+S62W = 0.62, 0.71, 0.57, 0.73, 0.83, 0.63
- S38M+E61M = ND, ND, ND, ND, ND, ND
- E32N+H98Y = ND, ND, 3.33, 1.94, 1.39, ND
- S25F+S26L+W56H+S62D+R99Q = 0.93, 1.00, 0.86, 0.95, 0.73, 0.79
- S25L+S26P+V29H+W56N+S62V = 0.18, -0.09, -0.03, -0.18, -0.19, 0.09
- E32L = ND, ND, ND, ND, ND, ND
- S28R+R60V = ND, ND, ND, ND, ND, ND
- K24Q+Y31L+R34H+W56E+H98A+R99Q = 0.97, 1.13, 0.77, 0.75, 0.82, 0.95
- S25E+S26A+A57D+H98T = ND, ND, ND, ND, ND, ND
- Y31M+K36C+W56D+H98V = 0.33, 0.79, 0.61, 0.70, 0.44, 0.94
- K24H+S25L+Y31M+W56N = -0.26, -0.28, -0.25, -0.40, -0.34, -0.25
- S25V+V29E+S38A+W56N+T59Q = 0.19, 0.01, -0.05, -0.17, -0.11, 0.09
- L30D+Y31L+W56D = 0.36, 0.48, 0.21, 0.14, 0.43, 0.45
- Q27I+V29Y+K36E+W56E+S62D = 0.20, 0.27, 0.00, 0.10, 0.01, 0.39
- Q27D+V29G+H98T = 1.75, ND, 1.45, 1.31, 0.97, 1.21
- V29E+Y31C+S33D+K36T+W56Q+T59Q = 0.82, 1.11, 1.19, 0.50, 1.30, 1.43
- S25L+V29W+S38N+W56A = -0.23, -0.27, -0.35, -0.41, -0.42, -0.22

The first 4 variants above that were never detected:

changes,"log10 Kd, replicates"
S38M+E61M,"ND, ND, ND, ND, ND, ND"
E32L,"ND, ND, ND, ND, ND, ND"
S28R+R60V,"ND, ND, ND, ND, ND, ND"
S25E+S26A+A57D+H98T,"ND, ND, ND, ND, ND, ND"

A sequence measured in both rounds can read differently, since the two assays cover different ranges. The parent sequence was in this pool as ten entries: three were never detected, three once, and four in most replicates, with averages from 0.34 to 2.37. The authors averaged sequences with at least three values out of six and counted those with two or fewer as poor binders. Nonspecific signal, from three strains lacking the peptide, appeared in 4% of pairings of all light chain designs, centred on 2.64 (5% of these signals below 1.59); values are not corrected for it.

Reference: Li et al. 2023, doi:10.1038/s41467-023-39022-2. File: FLAb, binding data.